The values below come from PMC8438977, “Isolation of bioactive compounds from medicinal plants used in traditional medicine: Rautandiol B, a potential lead compound against Plasmodium falciparum” (BMC Complementary Medicine and Therapies, 2021).

Chains of the proteins cited; added tags and fusions are not shown. Lines headed by an entry give the natural chain unless they say otherwise; changes in a name come on top.
UniProt P53341: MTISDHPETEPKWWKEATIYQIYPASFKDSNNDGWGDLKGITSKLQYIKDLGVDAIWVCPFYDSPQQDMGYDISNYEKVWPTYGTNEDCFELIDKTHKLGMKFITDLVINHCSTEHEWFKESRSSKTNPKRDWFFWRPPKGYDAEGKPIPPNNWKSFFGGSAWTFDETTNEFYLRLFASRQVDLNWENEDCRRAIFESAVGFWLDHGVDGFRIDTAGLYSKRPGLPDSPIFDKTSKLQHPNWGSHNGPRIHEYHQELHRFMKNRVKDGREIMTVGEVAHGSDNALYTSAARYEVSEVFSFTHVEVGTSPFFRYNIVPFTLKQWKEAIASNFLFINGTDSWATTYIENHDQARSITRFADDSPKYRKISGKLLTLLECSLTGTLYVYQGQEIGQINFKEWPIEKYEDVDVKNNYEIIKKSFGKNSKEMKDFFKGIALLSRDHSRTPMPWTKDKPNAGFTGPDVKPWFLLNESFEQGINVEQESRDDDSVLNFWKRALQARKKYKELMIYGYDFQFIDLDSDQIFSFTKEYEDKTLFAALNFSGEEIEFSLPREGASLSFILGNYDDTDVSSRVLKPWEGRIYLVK

The target of this assay is T1, α-glucosidase (AG) (Saccharomyces cerevisiae, UniProt P53341).
T1 construct: purchased Sigma
The assay is classed as biochemical, S. cerevisiae. On the procedure: AGI values of extracts and pure phytochemicals were quantitatively determined in a 96-well plastic plate according to the method described by Nguyen et al.. The enzyme was incubated with the samples dissolved in DMSO for 5 min before adding the substrate. The inhibition was measured spectrophotometrically in 20 mM sodium phosphate buffer pH 6.0 at 37 °C using 3.0 mM p-nitrophenyl α-D-glucopyranoside (Sigma) as the substrate and 0.25 units/mL of AG from S. cerevisiae (Sigma). The absorbance at 405 nm was measured using a microplate reader (BioTek ELx808 microplate reader, USA).

In the case of `C[C@H]1O[C@H](O[C@H]2[C@H](O)[C@@H](O)[C@@H](O[C@H]3[C@H](O)[C@@H](O)C(O)O[C@@H]3CO)O[C@@H]2CO)[C@H](O)[C@@H](O)[C@@H]1N[C@H]1C=C(CO)[C@@H](O)[C@H](O)[C@H]1O` (some centres unmarked) [Acarbose, reference compound], the “% Inhibition (AGI activity), positive control” value is reported as 86.5 ± 0.4% and the “AGI activity, percentage inhibition, positive control” value is 71.3%.
